For two molecules, outcome results are on record in PubChem BioAssay AID2426 (Johns Hopkins Ion Channel Center, 2010).

The list shows a part of the results, in another mix than the full data. Active and inactive are the calls of the source.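 The calls were made as follows: active = fluorescence ratio normalized to control raised more than 50% in primary screen plus both repeat runs; inactive = the rest.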

For the experiment, the system named is TRPC4 beta (transient receptor potential cation channel C4), mouse. Put plainly: activators of mouse TRPC4 channel, confirmation, cell-based, Fluo4 calcium, HEK293 TRPC4beta/mu-opioid, duplicates, 10 µM (AID 2426). The settings on record: Fluo4 calcium fluorescence, at 10 µM.
Turning to `CN(C)CCOC(=O)C(O)(c1ccccc1)C1CCCC1` (configuration not stated), the outcome was inactive.
The result for `CCN(CC)CCCOC(=O)C(O)(c1ccccc1)c1ccccc1` reads “inactive”.
